How the values were obtained:
[1] = target: mouse Celsr3 (Celsr3-Flag) (mouse) (UniProt Q91ZI0); assay: saturation binding on transfected cells
[2] = target: human Celsr3 (hCelsr3-Flag) (human) (UniProt Q9NYQ7); assay: saturation binding on transfected cells

Sequences of proteins named here, by UniProt entry; tags and fusion partners are left off. Residues count along the entry.
UniProt Q91ZI0, 32-3301: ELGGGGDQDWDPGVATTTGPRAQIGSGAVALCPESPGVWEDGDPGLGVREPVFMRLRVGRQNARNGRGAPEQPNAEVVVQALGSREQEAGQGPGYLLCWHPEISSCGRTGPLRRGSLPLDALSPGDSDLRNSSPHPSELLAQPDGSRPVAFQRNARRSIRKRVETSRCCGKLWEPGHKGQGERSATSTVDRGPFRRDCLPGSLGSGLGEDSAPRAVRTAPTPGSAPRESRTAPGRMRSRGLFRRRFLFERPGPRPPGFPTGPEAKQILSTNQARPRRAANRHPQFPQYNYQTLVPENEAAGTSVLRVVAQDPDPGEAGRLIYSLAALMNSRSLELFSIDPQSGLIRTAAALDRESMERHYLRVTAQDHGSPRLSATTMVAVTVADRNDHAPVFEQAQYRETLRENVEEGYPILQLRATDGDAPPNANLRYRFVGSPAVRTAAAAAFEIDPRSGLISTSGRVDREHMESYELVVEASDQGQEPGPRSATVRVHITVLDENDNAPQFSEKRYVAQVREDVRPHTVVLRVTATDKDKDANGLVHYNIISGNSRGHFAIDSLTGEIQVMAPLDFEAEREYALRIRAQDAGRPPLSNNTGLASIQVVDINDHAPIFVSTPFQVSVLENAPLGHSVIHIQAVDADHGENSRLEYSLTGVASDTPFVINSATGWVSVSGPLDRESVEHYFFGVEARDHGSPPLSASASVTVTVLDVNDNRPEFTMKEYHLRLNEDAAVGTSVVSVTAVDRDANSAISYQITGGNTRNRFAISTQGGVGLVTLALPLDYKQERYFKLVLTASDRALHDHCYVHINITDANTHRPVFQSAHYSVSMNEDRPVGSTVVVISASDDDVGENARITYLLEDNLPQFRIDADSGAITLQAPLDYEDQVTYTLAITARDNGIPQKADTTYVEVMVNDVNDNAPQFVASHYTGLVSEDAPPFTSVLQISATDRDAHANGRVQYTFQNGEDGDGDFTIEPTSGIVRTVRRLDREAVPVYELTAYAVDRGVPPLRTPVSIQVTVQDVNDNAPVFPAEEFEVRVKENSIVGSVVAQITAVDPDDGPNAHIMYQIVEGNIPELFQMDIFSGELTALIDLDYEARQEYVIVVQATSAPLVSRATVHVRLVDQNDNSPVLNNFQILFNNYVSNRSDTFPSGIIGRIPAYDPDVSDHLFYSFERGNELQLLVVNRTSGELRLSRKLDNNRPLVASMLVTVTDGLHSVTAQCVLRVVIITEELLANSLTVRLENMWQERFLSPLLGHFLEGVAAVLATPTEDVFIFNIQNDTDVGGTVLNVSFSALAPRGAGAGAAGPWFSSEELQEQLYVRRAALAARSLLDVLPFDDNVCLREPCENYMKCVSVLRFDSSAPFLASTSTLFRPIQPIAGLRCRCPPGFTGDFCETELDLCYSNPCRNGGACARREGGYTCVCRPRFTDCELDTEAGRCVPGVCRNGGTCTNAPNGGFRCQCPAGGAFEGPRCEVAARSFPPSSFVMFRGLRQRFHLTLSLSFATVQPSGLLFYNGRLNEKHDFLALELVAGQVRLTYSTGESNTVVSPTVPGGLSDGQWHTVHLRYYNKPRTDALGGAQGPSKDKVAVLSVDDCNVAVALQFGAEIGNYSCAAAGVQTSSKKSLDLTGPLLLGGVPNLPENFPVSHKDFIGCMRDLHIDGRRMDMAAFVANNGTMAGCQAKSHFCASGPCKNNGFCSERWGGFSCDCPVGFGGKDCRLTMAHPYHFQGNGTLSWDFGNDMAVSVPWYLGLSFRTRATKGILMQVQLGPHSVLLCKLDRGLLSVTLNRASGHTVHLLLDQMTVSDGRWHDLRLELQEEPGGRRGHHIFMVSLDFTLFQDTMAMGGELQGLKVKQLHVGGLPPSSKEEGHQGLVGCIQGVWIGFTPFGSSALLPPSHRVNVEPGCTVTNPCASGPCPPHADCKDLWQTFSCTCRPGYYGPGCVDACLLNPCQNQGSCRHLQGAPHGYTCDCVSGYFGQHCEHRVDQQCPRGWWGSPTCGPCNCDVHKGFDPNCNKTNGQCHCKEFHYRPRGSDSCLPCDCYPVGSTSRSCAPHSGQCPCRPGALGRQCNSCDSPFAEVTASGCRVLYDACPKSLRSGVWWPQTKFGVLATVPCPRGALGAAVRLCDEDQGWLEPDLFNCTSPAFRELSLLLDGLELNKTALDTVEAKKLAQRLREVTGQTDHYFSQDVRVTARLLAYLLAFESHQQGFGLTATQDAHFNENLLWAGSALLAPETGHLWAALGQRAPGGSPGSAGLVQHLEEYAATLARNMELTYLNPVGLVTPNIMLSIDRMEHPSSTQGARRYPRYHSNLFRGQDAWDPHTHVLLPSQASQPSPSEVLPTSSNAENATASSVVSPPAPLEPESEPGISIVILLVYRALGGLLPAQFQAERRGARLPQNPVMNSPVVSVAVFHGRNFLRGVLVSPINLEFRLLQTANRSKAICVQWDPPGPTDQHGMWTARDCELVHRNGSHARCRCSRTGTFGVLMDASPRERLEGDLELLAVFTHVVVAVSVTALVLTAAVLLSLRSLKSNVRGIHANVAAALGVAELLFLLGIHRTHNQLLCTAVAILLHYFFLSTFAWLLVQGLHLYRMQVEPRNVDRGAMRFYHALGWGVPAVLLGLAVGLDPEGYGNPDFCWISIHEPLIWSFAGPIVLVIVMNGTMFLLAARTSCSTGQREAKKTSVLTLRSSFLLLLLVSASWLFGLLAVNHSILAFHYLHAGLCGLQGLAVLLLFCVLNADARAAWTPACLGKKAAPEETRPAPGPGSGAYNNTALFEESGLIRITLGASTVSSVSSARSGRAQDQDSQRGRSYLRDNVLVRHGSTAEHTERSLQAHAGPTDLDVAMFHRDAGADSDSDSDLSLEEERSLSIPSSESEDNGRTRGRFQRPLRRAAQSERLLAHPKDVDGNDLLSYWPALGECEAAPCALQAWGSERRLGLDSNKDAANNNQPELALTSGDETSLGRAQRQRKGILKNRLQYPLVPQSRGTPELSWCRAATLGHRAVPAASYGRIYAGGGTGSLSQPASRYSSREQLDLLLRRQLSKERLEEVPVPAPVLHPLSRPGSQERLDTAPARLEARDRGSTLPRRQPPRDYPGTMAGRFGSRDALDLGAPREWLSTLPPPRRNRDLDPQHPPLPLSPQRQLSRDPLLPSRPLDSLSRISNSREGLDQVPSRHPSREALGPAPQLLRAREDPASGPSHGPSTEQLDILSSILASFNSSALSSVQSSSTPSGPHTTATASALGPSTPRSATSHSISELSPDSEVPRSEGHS
UniProt Q9NYQ7, 33-3312: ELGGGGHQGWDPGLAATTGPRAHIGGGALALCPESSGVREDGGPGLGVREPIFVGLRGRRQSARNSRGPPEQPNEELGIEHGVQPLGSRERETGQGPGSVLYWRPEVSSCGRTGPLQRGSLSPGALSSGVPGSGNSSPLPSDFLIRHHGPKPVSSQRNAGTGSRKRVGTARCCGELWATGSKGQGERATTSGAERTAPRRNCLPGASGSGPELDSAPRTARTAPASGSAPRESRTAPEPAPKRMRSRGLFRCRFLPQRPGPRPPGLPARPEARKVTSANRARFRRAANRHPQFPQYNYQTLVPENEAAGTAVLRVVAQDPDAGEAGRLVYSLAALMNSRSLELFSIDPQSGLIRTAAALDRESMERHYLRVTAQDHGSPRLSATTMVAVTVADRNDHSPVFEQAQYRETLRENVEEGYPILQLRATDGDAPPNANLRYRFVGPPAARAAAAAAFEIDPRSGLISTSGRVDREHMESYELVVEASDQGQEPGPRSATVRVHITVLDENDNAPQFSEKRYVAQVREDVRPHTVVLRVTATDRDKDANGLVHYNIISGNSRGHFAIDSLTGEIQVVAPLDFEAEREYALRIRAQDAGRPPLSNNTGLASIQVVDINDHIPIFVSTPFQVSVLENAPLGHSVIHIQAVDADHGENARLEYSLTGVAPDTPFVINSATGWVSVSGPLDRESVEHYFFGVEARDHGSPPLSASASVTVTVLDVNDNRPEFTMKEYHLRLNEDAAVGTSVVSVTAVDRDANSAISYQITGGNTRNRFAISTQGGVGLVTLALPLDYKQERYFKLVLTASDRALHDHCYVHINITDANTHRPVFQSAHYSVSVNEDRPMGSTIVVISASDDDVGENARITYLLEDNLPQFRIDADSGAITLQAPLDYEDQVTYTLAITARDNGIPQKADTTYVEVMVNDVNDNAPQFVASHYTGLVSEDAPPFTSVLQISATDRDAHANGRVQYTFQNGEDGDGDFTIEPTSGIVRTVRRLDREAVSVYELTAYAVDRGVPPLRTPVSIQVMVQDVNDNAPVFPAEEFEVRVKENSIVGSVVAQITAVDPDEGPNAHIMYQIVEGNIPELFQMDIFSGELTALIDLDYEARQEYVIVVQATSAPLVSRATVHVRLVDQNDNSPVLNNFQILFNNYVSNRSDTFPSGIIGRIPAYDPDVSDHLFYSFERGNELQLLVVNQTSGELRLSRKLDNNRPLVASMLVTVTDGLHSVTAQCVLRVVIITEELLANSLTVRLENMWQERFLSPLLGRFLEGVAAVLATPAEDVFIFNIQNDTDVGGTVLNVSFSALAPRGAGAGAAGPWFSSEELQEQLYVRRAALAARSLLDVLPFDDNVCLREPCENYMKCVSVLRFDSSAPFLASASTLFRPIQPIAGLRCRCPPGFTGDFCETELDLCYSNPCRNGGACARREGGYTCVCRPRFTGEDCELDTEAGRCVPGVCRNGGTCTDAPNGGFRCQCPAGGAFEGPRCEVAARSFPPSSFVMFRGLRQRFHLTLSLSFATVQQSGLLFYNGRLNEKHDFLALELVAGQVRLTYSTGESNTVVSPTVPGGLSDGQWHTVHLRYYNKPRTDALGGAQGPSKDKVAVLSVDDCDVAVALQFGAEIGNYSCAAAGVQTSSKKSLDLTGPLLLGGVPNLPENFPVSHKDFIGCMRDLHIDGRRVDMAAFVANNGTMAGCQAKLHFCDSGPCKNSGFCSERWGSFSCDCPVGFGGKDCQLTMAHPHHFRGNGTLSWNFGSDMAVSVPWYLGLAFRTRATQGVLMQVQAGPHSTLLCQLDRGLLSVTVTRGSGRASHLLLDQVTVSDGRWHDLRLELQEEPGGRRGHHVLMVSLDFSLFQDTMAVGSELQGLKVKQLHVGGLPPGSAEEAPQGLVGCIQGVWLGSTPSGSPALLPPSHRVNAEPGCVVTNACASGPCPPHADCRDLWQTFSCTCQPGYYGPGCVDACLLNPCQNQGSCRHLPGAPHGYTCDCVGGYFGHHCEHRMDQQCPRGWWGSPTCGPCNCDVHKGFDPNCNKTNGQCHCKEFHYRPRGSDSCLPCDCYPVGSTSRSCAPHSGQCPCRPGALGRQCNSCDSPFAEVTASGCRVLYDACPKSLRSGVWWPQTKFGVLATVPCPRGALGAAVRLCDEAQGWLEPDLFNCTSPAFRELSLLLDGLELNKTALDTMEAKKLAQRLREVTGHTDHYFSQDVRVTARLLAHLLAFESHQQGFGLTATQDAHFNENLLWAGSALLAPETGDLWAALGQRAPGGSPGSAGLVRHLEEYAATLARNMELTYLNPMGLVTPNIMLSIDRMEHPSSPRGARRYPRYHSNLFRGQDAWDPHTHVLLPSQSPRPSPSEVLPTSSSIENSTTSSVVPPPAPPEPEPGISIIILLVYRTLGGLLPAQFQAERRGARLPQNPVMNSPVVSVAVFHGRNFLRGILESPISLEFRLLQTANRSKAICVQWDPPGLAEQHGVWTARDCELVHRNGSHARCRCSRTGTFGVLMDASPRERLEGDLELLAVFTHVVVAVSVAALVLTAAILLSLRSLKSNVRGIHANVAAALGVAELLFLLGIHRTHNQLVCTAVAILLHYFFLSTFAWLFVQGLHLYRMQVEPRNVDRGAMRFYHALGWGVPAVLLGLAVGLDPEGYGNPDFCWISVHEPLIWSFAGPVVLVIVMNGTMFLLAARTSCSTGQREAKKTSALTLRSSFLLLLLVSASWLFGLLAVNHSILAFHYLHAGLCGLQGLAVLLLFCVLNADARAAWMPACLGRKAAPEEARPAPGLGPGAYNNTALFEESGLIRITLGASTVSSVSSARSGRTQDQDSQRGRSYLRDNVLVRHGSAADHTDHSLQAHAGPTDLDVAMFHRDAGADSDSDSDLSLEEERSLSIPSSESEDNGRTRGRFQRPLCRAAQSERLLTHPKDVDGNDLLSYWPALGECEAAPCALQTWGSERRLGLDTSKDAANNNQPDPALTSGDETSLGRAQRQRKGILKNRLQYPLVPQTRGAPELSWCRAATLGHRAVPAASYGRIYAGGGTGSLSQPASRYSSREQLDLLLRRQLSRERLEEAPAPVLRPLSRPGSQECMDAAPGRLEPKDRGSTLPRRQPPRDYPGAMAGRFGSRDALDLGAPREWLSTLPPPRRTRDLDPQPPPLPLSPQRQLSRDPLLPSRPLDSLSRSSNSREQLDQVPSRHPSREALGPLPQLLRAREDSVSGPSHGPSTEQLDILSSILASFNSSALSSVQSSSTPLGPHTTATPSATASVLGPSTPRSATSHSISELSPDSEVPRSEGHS

Substance	Kd [1] [nM]	Kd [2] [nM]
oligomeric Aβ42 (human biotin-beta-Amyloid (1-42), oligomerised) (from UniProt P05067) (peptide)	40	
oligomeric Aβ42 (human biotin-beta-Amyloid (1-42), oligomerised) (from UniProt P05067) (peptide; biotin (position not stated))		70
